This experiment is described as follows: Ratio of inhibition of electrically induced contractions in GPI and MVD.

The structures appear in SMILES notation.

Consider one molecule from ChEMBL document CHEMBL1124680, “Cyclic enkephalin analogues containing alpha-amino-beta-mercapto-beta,beta-pentamethylenepropionic acid at positions 2 or 5” (J Med Chem, 1989).

With `CC(C)C[C@H](NC(=O)[C@H](Cc1ccccc1)NC(=O)CNC(=O)CNC(=O)[C@@H](N)Cc1ccc(O)cc1)C(=O)O`, the Ratio is 21.6.
